Results: article PMC3781056, “New Pyrazolopyrimidine Inhibitors of Protein Kinase D as Potent Anticancer Agents for Prostate Cancer Cells” (PLoS ONE, 2013)

Biological target: T1, PKD1 (Homo sapiens, UniProt Q15139)
T1 sequence (Q15139 1-912): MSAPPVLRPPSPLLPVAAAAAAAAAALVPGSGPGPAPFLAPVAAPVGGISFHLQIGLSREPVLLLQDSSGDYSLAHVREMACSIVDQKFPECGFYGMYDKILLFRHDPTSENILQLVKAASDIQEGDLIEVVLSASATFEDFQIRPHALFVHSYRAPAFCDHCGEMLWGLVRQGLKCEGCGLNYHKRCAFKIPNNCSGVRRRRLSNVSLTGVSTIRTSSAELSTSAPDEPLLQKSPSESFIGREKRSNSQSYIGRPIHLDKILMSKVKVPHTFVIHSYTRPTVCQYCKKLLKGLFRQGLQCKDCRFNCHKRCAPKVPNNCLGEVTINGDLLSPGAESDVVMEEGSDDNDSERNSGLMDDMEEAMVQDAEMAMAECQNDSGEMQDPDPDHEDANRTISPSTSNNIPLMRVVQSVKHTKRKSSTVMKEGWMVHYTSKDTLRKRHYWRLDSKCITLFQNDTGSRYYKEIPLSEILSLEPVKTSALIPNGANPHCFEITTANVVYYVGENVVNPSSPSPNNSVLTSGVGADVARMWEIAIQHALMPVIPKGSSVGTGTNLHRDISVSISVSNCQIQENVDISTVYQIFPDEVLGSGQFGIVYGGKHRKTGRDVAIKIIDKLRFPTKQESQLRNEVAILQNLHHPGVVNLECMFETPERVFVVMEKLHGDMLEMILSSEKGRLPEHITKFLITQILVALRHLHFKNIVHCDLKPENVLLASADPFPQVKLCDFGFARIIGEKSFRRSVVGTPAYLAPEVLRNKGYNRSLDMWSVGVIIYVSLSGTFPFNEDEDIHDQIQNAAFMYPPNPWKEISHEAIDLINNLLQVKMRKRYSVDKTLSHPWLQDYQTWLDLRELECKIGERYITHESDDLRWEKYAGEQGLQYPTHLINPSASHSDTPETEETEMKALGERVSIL
Assay: In vitro radiometric PKD1 screening assay at 1 µM
Conditions: targeted kinase inhibitor library screen, relative to DMSO

kb-NB142-70
% PKD1 Inhibition: 88%
